scFv variants of Ab-14 (light chain) against a SARS-CoV-2 spike peptide

Target peptide (SARS-CoV-2 spike, HR2 region): PDVDLGDISGINAS

The variants keep the heavy chain, the linker and the frameworks of Ab-14 (scFv order VH, a 15-residue (Gly4Ser)3 linker, VL).
VH: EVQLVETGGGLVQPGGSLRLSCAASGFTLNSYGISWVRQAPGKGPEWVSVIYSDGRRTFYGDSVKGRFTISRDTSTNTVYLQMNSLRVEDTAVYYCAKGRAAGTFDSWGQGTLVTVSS
VL: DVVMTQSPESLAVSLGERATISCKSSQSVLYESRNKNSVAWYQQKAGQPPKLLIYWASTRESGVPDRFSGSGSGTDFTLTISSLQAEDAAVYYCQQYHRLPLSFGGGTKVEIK

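The starting antibody came from a phage panning campaign against this peptide. AAYL50 was designed without a model: most single CDR substitutions and a random sample of double and triple ones. The assay is AlphaSeq: two haploid yeast populations carry antibody and antigen on their surface. After mating in shaken culture at 30 °C for 16 h, diploids were selected and their barcode pairs sequenced. Scores were corrected for input abundance and mapped to Kd with protein pairs of known affinity run in the same pool. There are three technical replicates.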

Changes read parent residue, position, new residue, counted from the first residue of the VL shown. All variants listed here change A40 of the VL, counted from its first residue. Each Kd is an estimate from the mating assay, the geometric mean of the replicates in which the pair was seen; lower is stronger. "no signal" marks a missing value. The strain was present, yet no cells mated with the target were sequenced in any replicate, which points to weak or no binding. Nonspecific signal, from three strains lacking the peptide, appeared in 18% of pairings of library AAYL50, centred on 15 µM (5% of these signals below 970 nM); values are not corrected for it. Also given: how often the same scFv was detected with the empty control strains. Parent in this assay: reference entry 4.4 nM, copy in this library 48 nM.

Variant A40I/T59R/S103E gave no signal (0 of 3 replicates; controls 2 of 9). Variant S25A/A40N gave no signal (0 of 3 replicates; controls 0 of 9). For A40L/Q96P, the assay gave 940 µM (1 of 3 replicates; controls 2 of 9). Variant K36I/A40M/H98D gave no signal (0 of 3 replicates; controls 0 of 9). Variant V39S/A40D/R99H gave 68 µM (3 of 3 replicates; controls 6 of 9). Variant S38P/A40M/W56S showed no signal (0 of 3 replicates; controls 0 of 9). For Q27M/L30A/A40N, the assay gave no signal (0 of 3 replicates; controls 2 of 9).

Variant K36V/A40W/S103D showed no signal (0 of 3 replicates; controls 0 of 9). With V29T/A40I/Y97L the result was 3.3 µM (1 of 3 replicates; controls 1 of 9). Variant S38N/A40L/Y97P gave 54 µM (1 of 3 replicates; controls 2 of 9). For S38E/A40F/Q96C, the assay gave no signal (0 of 3 replicates; controls 2 of 9). With S33I/A40S/S62Y the result was no signal (0 of 3 replicates; controls 3 of 9). Variant V29S/A40E/S62V showed 47 µM (1 of 3 replicates; controls 2 of 9). Variant K36T/A40G/E61W showed 58 nM (3 of 3 replicates; controls 1 of 9).

For S28L/K36C/A40C, the assay gave no signal (0 of 3 replicates; controls 0 of 9). For N35S/A40C/A57F, the assay gave no signal (0 of 3 replicates; controls 0 of 9). With A40E/Q95A/Y97F the result was no signal (0 of 3 replicates; controls 2 of 9). For S33E/N35C/A40V, the assay gave 170 µM (2 of 3 replicates; controls 5 of 9). For S33I/V39S/A40K, the assay gave no signal (0 of 3 replicates; controls 0 of 9). Variant S25L/A40F/S62H showed no signal (0 of 3 replicates; controls 5 of 9). For S28P/A40Q/R60D, the assay gave no signal (0 of 3 replicates; controls 0 of 9).

Variant S26F/A40D/Q96Y showed 71 µM (1 of 3 replicates; controls 1 of 9). With R34Q/A40D/L102N the result was 1.2 µM (1 of 3 replicates; controls 1 of 9). Variant A40Y/S58V/R60L gave no signal (0 of 3 replicates; controls 1 of 9). With A40D/Y97F/S103A the result was no signal (0 of 3 replicates; controls 1 of 9). Variant E32Q/A40M/L102S gave 10 µM (2 of 3 replicates; controls 0 of 9). Variant A40S/A57L/H98G showed no signal (0 of 3 replicates; controls 1 of 9). Variant N37P/A40F showed 52 µM (3 of 3 replicates; controls 4 of 9).

Variant K36F/N37H/A40S gave 590 µM (1 of 3 replicates; controls 1 of 9). For L30R/R34Q/A40Y, the assay gave 25 µM (2 of 3 replicates; controls 2 of 9). With R34L/A40C/E61N the result was 1.1 µM (3 of 3 replicates; controls 1 of 9). Variant S33M/A40F showed 30 µM (1 of 3 replicates; controls 2 of 9). With N35P/A40R/S62C the result was no signal (0 of 3 replicates; controls 1 of 9). Variant K24E/Y31F/A40H showed 7.5 nM (3 of 3 replicates; controls 4 of 9). With K24L/N37G/A40W the result was no signal (0 of 3 replicates; controls 1 of 9).

With A40G/R99W the result was 110 µM (2 of 3 replicates; controls 7 of 9). Variant L30S/K36P/A40S showed 5.2 µM (3 of 3 replicates; controls 1 of 9). Variant S25A/A40H/Q95K showed no signal (0 of 3 replicates; controls 0 of 9). Variant S25I/A40H/H98E showed no signal (0 of 3 replicates; controls 0 of 9).

Top 5 of the variants detected in all replicates, tightest first:

changes	Kd	seen in	signal with controls
K24E/Y31F/A40H	7.5 nM	3 of 3	4 of 9
K36T/A40G/E61W	58 nM	3 of 3	1 of 9
R34L/A40C/E61N	1.1 µM	3 of 3	1 of 9
L30S/K36P/A40S	5.2 µM	3 of 3	1 of 9
N37P/A40F	52 µM	3 of 3	4 of 9

The measurements come from Engelhart et al. 2022 (doi:10.1038/s41597-022-01779-4) through the FLAb antibody collection.